pKi: −log10 of the molar value.
Columns and labels:
[1] = target: Human α2δ-1 subunit of Cav2.2 calcium channel (Homo sapiens, UniProt P54289); experiment: Human α2δ-1 subunit of Cav2.2 calcium channel assay ([3H]-gabapentin binding); details: read-out: α2δ-1 binding; binding to the α2δ-1 subunit of voltage-gated calcium channels, expressed as Ki class; + also covers inhibition between 1% and 50%
Method: Human α2δ-1 Subunit of Cav2.2 Calcium Channel Assay
Human α2δ-1 enriched membranes (2.5 μg) were incubated with 15 nM of radiolabeled [^3H]-Gabapentin in assay buffer containing Hepes-KOH 10 mM. pH 7.4. NSB (non specific binding) was measured by adding 10 μM pregabalin. The binding of the test compound was measured at either one concentration (% inhibition at 1 or 10 μM) or five different concentrations to determine affinity values (Ki). After 60 min incubation at 27° C., binding reaction was terminated by filtering through Multiscreen GF/C (Millipore) presoaked in 0.5% polyethyleneimine in Vacuum Manifold Station, followed by 3 washes with ice-cold filtration buffer containing 50 mM Tris-HCl, pH 7.4. Filter plates were dried at 60° C. for 1 h and 30 μL of scintillation cocktail were added to each well before radioactivity reading. Readings were performed in a Trilux 1450 Microbeta radioactive counter (Perkin Elmer).

Chains of the proteins cited; added tags and fusions are not shown. Lines headed by an entry give the natural chain unless they say otherwise; changes in a name come on top. Residues count along the entry.
UniProt P54289, 25-1103 limits assumed: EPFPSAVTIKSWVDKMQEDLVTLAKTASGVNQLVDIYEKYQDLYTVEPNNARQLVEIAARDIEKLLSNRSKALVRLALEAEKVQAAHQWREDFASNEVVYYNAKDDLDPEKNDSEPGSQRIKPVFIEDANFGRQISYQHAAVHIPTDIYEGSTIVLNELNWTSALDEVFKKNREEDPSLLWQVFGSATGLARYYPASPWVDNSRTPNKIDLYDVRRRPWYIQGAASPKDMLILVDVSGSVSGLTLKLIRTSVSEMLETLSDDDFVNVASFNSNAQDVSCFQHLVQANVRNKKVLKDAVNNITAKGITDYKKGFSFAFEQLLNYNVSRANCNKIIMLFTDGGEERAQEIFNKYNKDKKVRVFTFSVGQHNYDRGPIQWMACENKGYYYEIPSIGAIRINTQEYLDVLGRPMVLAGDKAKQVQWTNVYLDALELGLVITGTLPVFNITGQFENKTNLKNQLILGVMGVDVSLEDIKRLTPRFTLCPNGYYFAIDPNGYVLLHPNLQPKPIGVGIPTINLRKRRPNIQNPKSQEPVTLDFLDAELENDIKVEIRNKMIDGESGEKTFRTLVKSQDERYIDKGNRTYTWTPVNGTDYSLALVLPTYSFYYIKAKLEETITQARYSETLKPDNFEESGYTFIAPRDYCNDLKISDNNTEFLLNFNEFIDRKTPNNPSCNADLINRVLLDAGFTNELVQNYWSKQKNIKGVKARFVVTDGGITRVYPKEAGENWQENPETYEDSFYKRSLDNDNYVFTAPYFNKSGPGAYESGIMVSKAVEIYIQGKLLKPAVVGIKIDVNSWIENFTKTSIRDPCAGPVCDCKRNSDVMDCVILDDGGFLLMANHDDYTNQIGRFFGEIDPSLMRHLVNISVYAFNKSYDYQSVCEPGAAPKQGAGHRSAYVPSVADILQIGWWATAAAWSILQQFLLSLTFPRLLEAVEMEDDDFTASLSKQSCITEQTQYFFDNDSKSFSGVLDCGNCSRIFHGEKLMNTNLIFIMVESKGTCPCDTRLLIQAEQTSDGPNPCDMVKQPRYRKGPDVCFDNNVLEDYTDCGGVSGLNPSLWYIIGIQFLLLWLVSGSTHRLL
UniProt Q99720, whole entry: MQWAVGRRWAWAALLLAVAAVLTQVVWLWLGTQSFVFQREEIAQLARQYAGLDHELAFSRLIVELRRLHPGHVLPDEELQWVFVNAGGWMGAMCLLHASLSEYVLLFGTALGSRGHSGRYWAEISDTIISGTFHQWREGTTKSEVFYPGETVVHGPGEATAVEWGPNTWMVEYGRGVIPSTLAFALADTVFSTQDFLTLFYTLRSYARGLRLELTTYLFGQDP

Human σ1 receptor = Human σ1 receptor (Homo sapiens, UniProt Q99720); experiment: Human σ1 receptor radioligand assay ([3H](+)-pentazocine binding); details: read-out: σ1 binding; binding to the σ1 receptor, expressed as Ki class; + also covers inhibition between 1% and 50%
Method: Human σ1 Receptor Radioligand Assay
Transfected HEK-293 membranes (7 μg) were incubated with 5 nM of [^3H](+)-pentazocine in assay buffer containing Tris-HCl 50 mM at pH 8. NBS (non-specific binding) was measured by adding 10 μM haloperidol. The binding of the test compound was measured at either one concentration (% inhibition at 1 or 10 μM) or five different concentrations to determine affinity values (Ki). Plates were incubated at 37° C. for 120 minutes. After the incubation period, the reaction mix was then transferred to MultiScreen HTS, FC plates (Millipore), filtered and plates were washed 3 times with ice-cold 10 mM Tris-HCL (pH7.4). Filters were dried and counted at approximately 40% efficiency in a MicroBeta scintillation counter (Perkin-Elmer) using EcoScint liquid scintillation cocktail.

SMILES	pKi [1]	pKi (Human σ1 receptor)
CCC[C@H](c1nc2ccc(Br)cc2c(=O)n1CC)N1CCN(C)C[C@H](CC)C1	> 6.30	< 6.00
CCC[C@H](c1nc2ccc(Br)cc2c(=O)n1CC)N1CCN(C)C[C@@H](CC)C1	> 6.30	> 6.30
CCC[C@@H](c1nc2ccc(Br)cc2c(=O)n1CC)N1CCN(C)C[C@H](CC)C1	< 5.30	6.00 to 6.30
CCC[C@@H](c1nc2ccc(Br)cc2c(=O)n1CC)N1CCN(C)C[C@@H](CC)C1	< 5.30	< 6.00
CCC[C@H](c1nc2ncc(F)cc2c(=O)n1CC)N1CCCN(C)CC1	> 6.30	< 6.00

— US12479830B2, “Homopiperazinyl and homopiperidinyl quinazolin-4(3H)-one derivatives having multimodal activity against pain” (ESTEVE PHARMACEUTICALS, S.A., priority 2019, dated 2025)
